# PMC4838304, “Effective Design of Multifunctional Peptides by Combining Compatible Functions” (PLoS Computational Biology, 2016)
# Assays:
# [1] = tested on: pGREG546 plasmid; assay: Electrophoretic mobility shift assay (EMSA), DNA retention; type: binding; conditions: 1μg pGREG546, DNA to peptide charge ratio 1:1 or 1:4, 30 minutes
# Description: To test the ability of the designed peptides to bind nucleic acids, we evaluated by electrophoretic mobility shift assays (EMSAs) the retention of DNA by the designed peptides. Each EMSA was executed with peptide quantities that were multiples of the DNA to peptide charge ratio. A DNA to peptide charge ratio of 1:1 is represented by the number of positive charges of the peptide required to neutralize the negative charges of the DNA backbone. Retention in the gel is an indirect measure of the fraction of positive charges within the peptide participating in binding the DNA molecules. All EMSA assays were performed using the yeast plasmid pGREG546. As negative control, pGREG546 without any peptide was used, and as positive control the known DNA-binding cell penetrating peptide MPG was used. […]
# Fig 4 DNA binding. (A) Quantification of DNA retention obtained from three independent electrophoretic mobility shift assays. […]
# 1μg of pGREG546 plasmid was pre-incubated with the required quantity of each peptide to result in a 1:1 or 1:4 peptide charge to DNA charge ratio. […] DNA affinity was quantified by measuring the mean pixel intensity of the DNA bands with Fiji (http://fiji.sc) and normalizing to the intensity range between an empty spot on the gel and the intensity of the pGREG546 plasmid without any added peptide. […]
# [2] = tested on: BY4741 yeast cells; assay: Internalization assay in yeast, confocal microscopy; type: cell-based, Saccharomyces cerevisiae; conditions: TAMRA-labeled versions, 60 μM, BY4741, pictures at 0, 10 and 20 min
# Description: We first evaluated whether the designed peptides retained the activity of the templates. The presence of the NLS sequence may locate peptides in the nuclei of cells; for that to happen first the peptides have to be internalized. […] For yeast cells, confocal microscopy was used to evaluate CPP activity in our peptides (see Fig 2).
# Fig 2 Designed peptides internalized into yeast cells. (A-F) Internalization assays in BY4741 yeast cells for peptide controls where Arg and Lys residues were replaced by Glu residues (A-C) and the original peptides (D-F). All peptides were used at 60 μM (final concentration) and labeled with the TAMRA fluorophore (see Table 1 and Materials and Methods for further details).
# All 6 fluorogenic peptides (TAMRA-peptides, see Table 1) were prepared to 600μM in water as a 10X stock solution. Although all the peptides were apparently soluble in water, they all formed aggregates under the microscope. […] These samples were observed under a multi-photon confocal microscope (Olympus FV1000) and pictures were recorded at 0, 10 and 20 min after the peptide addition. […] Bright field images were chosen from the in-focus z-stack, whereas TAMRA images denote the average fluorescence across the entire z-stack to obtain the fluorescence inside the entire cell volume. Images were analyzed using Fiji (http://fiji.sc/Downloads#Fiji).
# [3] = tested on: pheromone-signaling pathway (Fus1-eGFP) in MATa cells; assay: Pheromone signaling assay, Fus1-GFP expression and shmoo phenotype; type: cell-based, Saccharomyces cerevisiae; conditions: BY4741 fus1::eGFP, 60 μM peptide (20 μM for α-factor), 3h
# Method: Finally, the activity of the α-factor embedded in the peptides was evaluated by activation of the pheromone-signaling pathway in MATa cells of S. cerevisiae. We monitored the pheromone signaling activity by following the expression of the GFP-labeled Fus1 protein. Fus1 is among the proteins with the highest pheromone-induced expression and is required for cell-cell fusion during mating. […] The observed phenotype was consistent with the activation of signaling showing a mating protrusion, often called “shmoo” as well as the absence of budding due to inhibition of the Cdc28 cyclin [35, 36].
# Fig 5 Pheromone activity. The pheromone signaling pathway is confirmed by the expression of Fus1-GFP, characteristic “shmoo” phenotype and the absence of budding observed in differential interference contrast (DIC) bright field. Concentrations were 20 μM for α-factor and 60 μM for all other peptides. The negative control was water without any peptide.
# Pheromone signaling induction in Saccharomyces cerevisiae was measured by induction of eGFP fluorescence in a BY4741 strain containing the Fus1-eGFP construct in place of the wild type Fus1 (MATa his3Δ1 leu2Δ0 met15Δ0 ura3Δ0 fus1::eGFP HIS3MX6, obtained from the yeast GFP collection). The BY4741 fus1::eGFP strain was grown overnight in YPD to mid-log phase and diluted to 10^6 cells/mL. […] Images were analyzed using Fiji (www.fiji.sc). […]
# [4] = tested on: Escherichia coli strain DH5α; type: cell-based; conditions: 12 h
# [5] = tested on: Escherichia coli strain DH5α; type: cell-based
# Description: If CPP, DNA binding and AMP activities are compatible, the designed peptides should inhibit bacterial growth. Here we exposed E. coli DH5α cells to varying low concentrations of the designed peptides as well as several controls (see Fig 4). […] To test whether α-factor was important for AMP activity we also tested pure α-factor, pure NLS, the optimized NLS fitting CPP rules (NLS-CE) and the Iztli-1 peptide, a previously reported peptide with an embedded α-factor specifically designed to have antibacterial activity. […] A linear trend could be observed between concentration and growth inhibition (regression lines with standard deviations shown in Fig 6). […]
# Fig 6 Antibacterial activity. […] The relative area under the growth curve measured the growth inhibition. […]
# Escherichia coli strain DH5α was grown for 12 hours to mid-log phase and diluted to 8·10^5 cells/ml by using the reference OD obtained by absorption spectroscopy. […] Growth curves were measured on two 96 well half area plates with two replicates each followed for 24h using a plate reader (Synergy, USA). […]
# Using the slope of the linear regressions determined in these experiments, we estimated the minimal inhibitory concentration (MIC) for E. coli of our 3 CPP designed peptides (α-NLS-C, NLS-α-CE and chimera) and tested it experimentally.
smiles,measurement,setting,value
CSCC[C@H](NC(=O)[C@@H]1CCCN1C(=O)[C@H](CCC(N)=O)NC(=O)CNC(=O)[C@@H]1CCCN1C(=O)[C@H](CCCCN)NC(=O)[C@H](CC(C)C)NC(=O)[C@H](CCC(N)=O)NC(=O)[C@H](CC(C)C)NC(=O)[C@H](Cc1c[nH]c2ccccc12)NC(=O)[C@H](Cc1c[nH]cn1)NC(=O)[C@H](Cc1c[nH]c2ccccc12)NC(=O)[C@H](CC(C)C)NC(=O)[C@@H](N)CCCNC(=N)N)C(=O)N[C@@H](Cc1ccc(O)cc1)C(=O)N[C@@H](Cc1c[nH]c2ccccc12)C(=O)N[C@@H](CCCNC(=N)N)C(=O)N[C@@H](CCC(N)=O)C(=O)N1CCC[C@H]1C(=O)N[C@@H](CCCCN)C(=O)N[C@@H](CO)C(=O)N[C@@H](CCCCN)C(=O)N[C@@H](CCCNC(=N)N)C(=O)N[C@@H](CCCCN)C(=O)N[C@H](C(=O)N[C@@H](CCCNC(=N)N)C(=O)N[C@@H](CCCNC(=N)N)C(=O)O)C(C)C [α-NLS-C],"DNA binding in EMSA, in words",[1],effective DNA-binding activity
same,internalization into yeast cells,[2],quickly accumulate in the cell membrane and inside the yeast cells
same,"pheromone signaling activity (Fus1-GFP expression, phenotype)",[3],significant induction of expression of Fus1-GFP
same,E. coli MIC for 100% inhibition,[4],20 µM
same,E. coli MIC for 50% inhibition,"[5]; DH5α, 24 h",8 µM
same,concentration showing partial growth inhibition,"[5]; E. coli DH5α, peptides 0 to 16 μM",2 µM
